Our source for the inhibition values is PubChem BioAssay AID588497 (NMMLSC, 2011).

Only a part is listed here, and it is no random draw. Records with an inconclusive call do not appear. Calls of active or inactive are those of the source. No stated cut-off is given here; in the data, active means inhibition above about 35% (passing the limit was not always enough); inconclusive means no clear call, values can overlap the other calls.

As usually defined, the inhibition is the drop in the measured response relative to a control, in per cent.

The experiment has as its system Botulinum neurotoxin type F light chain protease (Clostridium botulinum). As to the kind of experiment: BoNT/F light chain protease inhibitors, primary screen, biochemical, flow cytometry, MLPCN library (AID 588497). Further: plate controls were buffer without enzyme for full effect and enzyme alone for no effect. The note with it: Multiplex microsphere protease cleavage assay, at 10 µM, hits give high values.
For the molecule `CCC(=O)N(c1ccccc1)C1(COC)CCN(CCn2nnn(CC)c2=O)CC1`, the inhibition was inactive: 4.7%.

On to `CCC(=O)N(c1ccccc1)C1(COC)CCN(CCc2cccs2)CC1`, for which the inhibition was inactive: -1.3%.
